Each structure is given as a SMILES string.

Sequences of proteins named here, by UniProt entry; tags and fusion partners are left off.
UniProt E1BN64, whole entry: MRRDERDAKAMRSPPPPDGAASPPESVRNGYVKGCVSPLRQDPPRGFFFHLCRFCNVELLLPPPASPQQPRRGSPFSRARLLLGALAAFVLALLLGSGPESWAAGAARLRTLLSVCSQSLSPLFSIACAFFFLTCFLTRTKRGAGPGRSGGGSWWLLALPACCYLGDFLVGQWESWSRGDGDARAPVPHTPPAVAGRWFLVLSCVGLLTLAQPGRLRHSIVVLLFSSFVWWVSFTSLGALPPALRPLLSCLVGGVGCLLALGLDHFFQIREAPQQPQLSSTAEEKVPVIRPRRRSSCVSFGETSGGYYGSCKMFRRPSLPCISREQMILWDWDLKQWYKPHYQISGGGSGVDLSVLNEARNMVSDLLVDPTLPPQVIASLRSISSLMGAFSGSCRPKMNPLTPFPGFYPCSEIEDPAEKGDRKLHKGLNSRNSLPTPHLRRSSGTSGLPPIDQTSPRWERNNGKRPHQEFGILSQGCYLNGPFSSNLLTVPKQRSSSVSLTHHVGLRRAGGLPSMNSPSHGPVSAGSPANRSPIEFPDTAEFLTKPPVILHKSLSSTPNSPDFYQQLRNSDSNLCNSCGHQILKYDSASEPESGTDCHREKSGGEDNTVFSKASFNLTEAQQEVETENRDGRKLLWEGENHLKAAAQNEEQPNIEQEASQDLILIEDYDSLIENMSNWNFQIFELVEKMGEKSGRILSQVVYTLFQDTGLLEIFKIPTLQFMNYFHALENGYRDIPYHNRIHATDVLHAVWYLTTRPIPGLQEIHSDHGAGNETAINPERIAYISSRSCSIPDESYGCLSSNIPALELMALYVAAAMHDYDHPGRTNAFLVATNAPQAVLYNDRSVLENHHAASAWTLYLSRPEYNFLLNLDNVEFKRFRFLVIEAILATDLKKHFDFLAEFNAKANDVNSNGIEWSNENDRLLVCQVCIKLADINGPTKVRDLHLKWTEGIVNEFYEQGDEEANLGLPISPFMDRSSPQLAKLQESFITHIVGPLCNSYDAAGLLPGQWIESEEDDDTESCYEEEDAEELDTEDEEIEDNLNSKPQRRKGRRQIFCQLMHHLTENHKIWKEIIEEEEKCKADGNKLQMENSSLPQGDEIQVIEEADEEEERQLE

For the first experiment, the target named is Phosphodiesterase 3B (Bos taurus, UniProt E1BN64). Kind of experiment: Inhibition of bovine arterial Phosphodiesterase 3.
With `C[C@H]1CC(=O)NN=C1c1ccc2c(NCc3ccccc3)ncnc2c1`, the IC50 was 3000 nM.
The same measure, in the same setting: next, `C[C@@H]1CC(=O)NN=C1c1ccc2c(NCc3ccccc3)ncnc2c1`: 5 nM; `CC1CC(=O)NN=C1c1ccc2c(NCc3ccccc3)ncnc2c1` (racemic): 50 nM.

The next experiment deals with cGMP-specific 3',5'-cyclic phosphodiesterase (Bos taurus, UniProt Q28156). Kind of experiment: Inhibition of bovine arterial Phosphodiesterase 5.
Regarding `C[C@H]1CC(=O)NN=C1c1ccc2c(NCc3ccccc3)ncnc2c1`, the IC50 was 1000 nM.
`C[C@@H]1CC(=O)NN=C1c1ccc2c(NCc3ccccc3)ncnc2c1` registered an IC50 of 10 nM.
The same measure, in the same setting: for `CC1CC(=O)NN=C1c1ccc2c(NCc3ccccc3)ncnc2c1` (racemic) the value was 46 nM.

The IC50 is the concentration that inhibits the measured activity by half.

(Values after ChEMBL document CHEMBL1129295, “Studies of cardiotonic agents. 8. Synthesis and biological activities of optically active 6-(4-(benzylamino)-7-quinazolinyl)-4,5-dihydro-5-methyl-3(2H)- pyridazinone (KF15232)” (J Med Chem, 1996).)
